Results published in patent US20070122451A1, “Biogically non-degradable peptides, angiostensin converting enzyme inhibitor, drug and functional food” (Calpis Co., Ltd., priority 2003, published 2007).

Molecular target: T1, ACE derived from bovine lung (Bos taurus, UniProt P12820)
T1 construct: ACE derived from bovine lung; host or cells: bovine lung tissue
T1 sequence (P12820 29-1306): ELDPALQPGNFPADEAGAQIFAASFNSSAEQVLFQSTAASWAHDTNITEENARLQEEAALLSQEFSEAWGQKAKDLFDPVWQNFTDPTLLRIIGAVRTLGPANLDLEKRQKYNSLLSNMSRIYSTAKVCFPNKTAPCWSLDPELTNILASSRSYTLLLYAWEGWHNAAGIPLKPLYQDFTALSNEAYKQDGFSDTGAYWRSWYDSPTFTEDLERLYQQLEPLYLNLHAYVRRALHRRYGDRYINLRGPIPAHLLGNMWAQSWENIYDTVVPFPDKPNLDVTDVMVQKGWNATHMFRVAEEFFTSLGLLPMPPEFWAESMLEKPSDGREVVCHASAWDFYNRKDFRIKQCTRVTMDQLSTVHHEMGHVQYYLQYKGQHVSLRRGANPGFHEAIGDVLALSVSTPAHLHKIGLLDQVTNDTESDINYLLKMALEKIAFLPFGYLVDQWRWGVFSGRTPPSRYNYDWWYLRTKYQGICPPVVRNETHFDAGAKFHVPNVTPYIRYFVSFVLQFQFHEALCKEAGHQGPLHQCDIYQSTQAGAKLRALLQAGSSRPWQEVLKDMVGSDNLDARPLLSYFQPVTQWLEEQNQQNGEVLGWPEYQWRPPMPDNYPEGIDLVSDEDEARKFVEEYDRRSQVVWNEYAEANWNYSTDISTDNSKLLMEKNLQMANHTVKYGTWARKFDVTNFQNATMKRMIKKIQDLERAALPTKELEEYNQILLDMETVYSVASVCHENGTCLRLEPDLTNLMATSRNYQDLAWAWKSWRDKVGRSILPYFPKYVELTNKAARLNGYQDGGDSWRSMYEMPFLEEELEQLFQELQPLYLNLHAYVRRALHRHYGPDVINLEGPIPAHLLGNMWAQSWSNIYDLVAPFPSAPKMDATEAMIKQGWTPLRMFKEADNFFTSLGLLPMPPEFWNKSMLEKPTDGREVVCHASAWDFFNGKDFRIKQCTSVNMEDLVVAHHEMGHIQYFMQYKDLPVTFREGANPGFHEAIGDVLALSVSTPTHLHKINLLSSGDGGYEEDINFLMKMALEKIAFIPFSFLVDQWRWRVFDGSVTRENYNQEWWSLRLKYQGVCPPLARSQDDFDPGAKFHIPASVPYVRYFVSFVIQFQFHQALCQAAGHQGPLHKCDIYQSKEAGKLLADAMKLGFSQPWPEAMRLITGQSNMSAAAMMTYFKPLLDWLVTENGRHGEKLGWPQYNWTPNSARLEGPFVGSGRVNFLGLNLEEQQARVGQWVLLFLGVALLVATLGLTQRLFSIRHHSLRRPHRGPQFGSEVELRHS
Assay: Evaluation of ACE inhibitory activity (hippuryl-histidyl-leucine substrate, absorbance at 228 nm)
Type: biochemical
Details: peptide concentration at which ACE inhibitory effect was 50%; 37° C., 30 minutes, pH 8.3 borate buffer
Procedure: Solutions of each of these peptides at various concentrations were prepared, and measured for the ACE inhibitory activity in accordance with the method discussed below. The peptide concentration (μM) at which the ACE inhibitory effect was 50% was taken as IC50 value.
<Evaluation of ACE Inhibitory Activity>
ACE derived from bovine lung (manufactured by WAKO PURE CHEMICAL […], LTD.) was dissolved in a 0.1M borate buffer at pH 8.3 in an amount of 0.1 U, to obtain an ACE solution. […] Subsequently, the reaction was terminated by adding 250 μl of 1N hydrochloric acid (manufactured by WAKO PURE CHEMICAL […], LTD.). […] The dried product was dissolved in 1 ml of distilled water, and the absorbance at 228 nm of hippuric acid extracted with ethyl acetate was measured. As controls, absorbance was measured of a solution without the diluted solution and a solution without the diluted solution and the ACE solution. From the obtained absorbance, ACE inhibitory activity was calculated in accordance with the following formula. ACE inhibitory activity (%)=[(A−B)/A]×100 • A: (Absorbance of solution without diluted solution but with ACE solution)—(Absorbance of solution without diluted solution and ACE solution)
B: (Absorbance of solution with diluted solution and ACE solution)—(Absorbance of solution with diluted solution but without ACE solution)

`N[C@@H](CO)C(=O)N1CCC[C@H]1C(=O)N1CCC[C@H]1C(=O)O` [Ser-Pro-Pro] was tested, and the IC50 was 44.5 µM.
